Values quoted from earlier work in US20030180387A1, “Method for increasing the antioxidative potential of selenium-containing aqueous solutions” (priority 2000, published 2003).

System: animals
Conditions: growth inhibition, loss of hair, softening of horns and hoofs, loss of feathers

**Q.** For [Se] [selenium], which “selenium content of animal nourishment at which toxication occurs” value is on record?
**A.** Its value is 5 to 10 μg selenium/g.
